From US20190275167A1, “GLASS FORMULATIONS AND USES THEREOF” (priority 2018, published 2019)

Tests used:
[1] = Drug release from heat-molded pellets/articles in release buffer (PBS, 1% FBS in PBS or 100% FBS) at 37° C., HPLC quantification; assay type: physicochemical; settings: over the course of 12 weeks or more; FIGS. 1E, 12E, 15C, 17D
[2] = physiologically relevant conditions

Which results are given for “Dexamethasone-Pentaethylene Glycol-Dexamethasone [Compound 8]”?
Dexamethasone release profile from articles [1]: generally linear; Physical form (shape) changes of articles [2]: do not
